Measured values taken from patent US4357341A, “Specific irreversible antagonism of histamine receptors by photoaffinity actuated compounds” (priority 1981, dated 1982).

Amino acid sequences for entries named in this document (tags omitted).
UniProt P31389, whole entry: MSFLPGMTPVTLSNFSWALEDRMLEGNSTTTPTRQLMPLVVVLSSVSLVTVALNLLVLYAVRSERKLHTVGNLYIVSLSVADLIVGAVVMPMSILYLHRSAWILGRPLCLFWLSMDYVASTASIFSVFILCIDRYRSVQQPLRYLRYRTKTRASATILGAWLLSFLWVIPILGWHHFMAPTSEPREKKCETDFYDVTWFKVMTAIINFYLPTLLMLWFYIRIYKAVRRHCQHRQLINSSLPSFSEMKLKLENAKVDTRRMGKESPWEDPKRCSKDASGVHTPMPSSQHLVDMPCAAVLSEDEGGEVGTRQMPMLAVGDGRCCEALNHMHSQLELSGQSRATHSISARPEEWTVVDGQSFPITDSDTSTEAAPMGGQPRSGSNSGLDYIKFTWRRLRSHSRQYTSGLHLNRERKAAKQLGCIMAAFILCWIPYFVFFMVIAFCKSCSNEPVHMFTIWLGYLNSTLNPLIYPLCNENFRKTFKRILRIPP

Target: histamine receptor (H1), isolated guinea pig vas deferens (Cavia porcellus, UniProt P31389)
Details: cimetidine present during photolysis; concentration not given
Protocol: Adult, albino guinea pigs (250-350 g; Hilltop Lab Animals, Scottdale, PA) were killed by a blow to the head. Vasa deferentia were removed, desheathed and mounted in conventional apparatus for the measurement of isometric contractile responses. Each tissue preparation was bathed in a separate glass, water-jacketed organ chamber containing modified Krebs-Henseleit solution (37° C.) for one hour prior to the beginning of the experiment. The tissues were washed every 15 minutes. Resting tension was 200 mg. Agonist agents were added to the bath with stepwise increases in concentration. The agonists were added at 10 minute intervals and the tissues were exposed to each concentration for 2 minutes; the tissues were washed twice with agonist-free Krebs-Henseleit solution, at 5 minute intervals, between agonist additions.
Effect of AAH after irradiation in the presence of histamine receptor ligands. […] AAH was then added to the test tissue, leaving the control exposed only to ligand, and after a 5-minute incubation, both the test and control tissues were irradiated for 5 minutes. Both tissues were washed twice with fresh Krebs-Henseleit solution to remove all agents, and concentration-response determinations were performed 10 minutes after irradiation.

CN/C(=N/CCSCc1nc[nH]c1C)NC#N [cimetidine]
protection from the effect of photolyzed AAH: weakly protective
